Literature values, collected in patent US9433683B2, “Reversible pegylated drugs” (Yeda Research and Development Co., Ltd., priority 2003, dated 2016).

System: hepatitis C
Conditions: hepatitis C patients; cited from earlier work

Row | Substance | sustained anti-viral response rate [%]
1 | IFNα2: Non-glycosylated human IFN-α2 | 12
2 | 12 kDa-PEG-IFNα2: non-reversible 12 kDa-PEG-IFNα2 conjugate, therapeutically approved in 2001 | 24
